Drawing on patent US12157727B2, “Substituted tetrahydroquinolin compounds as indoleamine 2,3-dioxygenase (IDO) inhibitors” (Merck Sharp & Dohme LLC, priority 2019, dated 2024), this text covers IC50 for 12 compounds.

By UniProt entry, the sequences of proteins in these tests, tags left out.
UniProt P14902, whole entry: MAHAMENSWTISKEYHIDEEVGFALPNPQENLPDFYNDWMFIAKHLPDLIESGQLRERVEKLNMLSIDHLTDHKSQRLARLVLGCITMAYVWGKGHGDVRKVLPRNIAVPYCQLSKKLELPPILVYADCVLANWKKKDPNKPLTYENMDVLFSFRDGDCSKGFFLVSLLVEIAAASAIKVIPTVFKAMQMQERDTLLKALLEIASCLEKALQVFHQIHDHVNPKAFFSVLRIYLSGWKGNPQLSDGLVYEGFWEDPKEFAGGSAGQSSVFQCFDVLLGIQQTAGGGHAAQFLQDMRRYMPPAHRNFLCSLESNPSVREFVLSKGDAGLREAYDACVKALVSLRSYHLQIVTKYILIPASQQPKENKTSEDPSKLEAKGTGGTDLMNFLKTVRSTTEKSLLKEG

The target in the test is IDO1 (Homo sapiens, UniProt P14902). In words: IDO1 Cellular Assay in HeLa Cells Stimulated with IFNγ. Type of test: cell-based. The following applies: HeLa cells stimulated with IFNγ 100 ng/mL, 300 uM L-tryptophan, about 48 hours; read-out: IDO1 HeLa Cell Assay, IC50.
The term IC50 denotes the point on the concentration scale where inhibition reaches its midpoint. Regarding `N#Cc1ccc2nc(C3(c4ccc5c(n4)CCCN5c4ccnc(C(F)(F)F)n4)CC4(CC4)C3)[nH]c2c1` [Example 41, 2-(5-(5-(2-(trifluoromethyl)pyrimidin-4-yl)-5,6,7,8-tetrahydro-1,5-naphthyridin-2-yl)spiro[2,3]hexan-5-yl)-1H-benzo[d]imidazole-6-carbonitrile], the IC50 was determined as 3.18 nM.
Take `O=C(c1ccccc1Cl)N1CCCc2nc(C3(c4nc5ncc(C(F)(F)F)cc5[nH]4)CCC3)ccc21` [Example 17, (2-chlorophenyl)[6-{1-[6-(trifluoromethyl)-1H-imidazo[4,5-b]pyridin-2-yl]cyclobutyl}-3,4-dihydro-1,5-naphthyridin-1(2H)-yl]methanone]: the 50% inhibitory concentration (IC50) is 0.958 nM.
As for `N#Cc1ccc2nc(C3(c4ccc5c(n4)CCCN5C(=O)OC4CC4)CCC3)[nH]c2c1` [Example 20, cyclopropyl 6-[1-(6-cyano-1H-benzimidazol-2-yl)cyclobutyl]-3,4-dihydro-1,5-naphthyridine-1(2H)-carboxylate], the figure is 4.25 nM; as for `C[C@H](c1ccc2c(c1)CCCN2C(=O)OC1CC1)c1nc2ncc(C#N)cc2[nH]1` [Example 8, cyclopropyl (R)-6-(1-(6-cyano-1H-imidazo[4,5-b]pyridin-2-yl)ethyl)-3,4-dihydroquinoline-1(2H)-carboxylate], 4.46 nM; as for `N#Cc1cnc2nc(C3(c4ccc5c(c4)CCCN5C(=O)OC4CC4)CCC3)[nH]c2c1` [Example 10, cyclopropyl 6-(1-(6-cyano-1H-imidazo[4,5-b]pyridin-2-yl)cyclobutyl)-3,4-dihydroquinoline-1(2H)-carboxylate], 4.23 nM.
`O=C(OC1CC1)N1CCCc2nc(C3(c4nc5ncc(Cl)cc5[nH]4)CCC3)ccc21` [Example 22, cyclopropyl 6-[1-(6-chloro-1H-imidazo[4,5-b]pyridin-2-yl)cyclobutyl]-3,4-dihydro-1,5-naphthyridine-1(2H)-carboxylate]: the IC50 is 1.38 nM.
Turning to `O=C(OC1CC1)N1CCCc2nc(C3(c4nc5ncc(C(F)(F)F)cc5[nH]4)CCC3)ccc21` [Example 23, cyclopropyl 6-{1-[6-(trifluoromethyl)-1H-imidazo[4,5-b]pyridin-2-yl]cyclobutyl}-3,4-dihydro-1,5-naphthyridine-1(2H)-carboxylate], the IC50 is 1.35 nM.
As for `FC(F)(F)c1cnc2[nH]c(C3(c4ccc5c(n4)CCCN5c4ccccn4)CCC3)nc2c1` [Example 31, 1-(pyridin-2-yl)-6-{1-[6-(trifluoromethyl)-3H-imidazo[4,5-b]pyridin-2-yl]cyclobutyl}-1,2,3,4-tetrahydro-1,5-naphthyridine], the figure is 3.33 nM; as for `CC(c1ccc2c(n1)CCCN2C(=O)OC1CC1)c1nc2ccc(Cl)cc2[nH]1` (stereo not drawn) [Example 25, cyclopropyl 6-(1-(6-chloro-1H-benzo[d]imidazol-2-yl)ethyl)-3,4-dihydro-1,5-naphthyridine-1(2H)-carboxylate], 1.15 nM.
As for `O=C([C@H]1CCCO1)N1CCCc2cc(C3(c4nc5ncc(C(F)(F)F)cc5[nH]4)CCC3)ccc21` [Example 3, [(2R)-oxolan-2-yl][6-{1-[6-(trifluoromethyl)-1H-imidazo[4,5-b]pyridin-2-yl]cyclobutyl}-3,4-dihydroquinolin-1(2H)-yl]methanone], the figure is 2.45 nM; as for `N#Cc1ccc2nc(C3(c4ccc5c(n4)CCCN5C(=O)OC4CC4)CC4(CC4)C3)[nH]c2c1` [Example 40, cyclopropyl 6-(5-(6-cyano-1H-benzo[d]imidazol-2-yl)spiro[2.3]hexan-5-yl)-3,4-dihydro-1,5-naphthyridine-1(2H)-carboxylate], 2.82 nM; as for `CC(c1ccc2c(n1)CCCN2C(=O)OC1CC1)c1nc2ncc(C#N)cc2[nH]1` (stereo not drawn) [Example 28, cyclopropyl 6-(1-(6-cyano-1H-imidazo[4,5-b]pyridin-2-yl)ethyl)-3,4-dihydro-1,5-naphthyridine-1(2H)-carboxylate], 4.47 nM.
